AlphaSeq binding of Ab-14 heavy chain variants to a spike HR2 peptide

From the AlphaSeq antibody data of Engelhart et al. 2022 (doi:10.1038/s41597-022-01779-4), copy in the FLAb collection.

Binding partner: SARS-CoV-2 spike HR2 peptide, sequence PDVDLGDISGINAS.

The variants keep the light chain, the linker and the frameworks of Ab-14 (scFv order VH, the linker GGGGSGGGGSGGGGS, VL).
VH: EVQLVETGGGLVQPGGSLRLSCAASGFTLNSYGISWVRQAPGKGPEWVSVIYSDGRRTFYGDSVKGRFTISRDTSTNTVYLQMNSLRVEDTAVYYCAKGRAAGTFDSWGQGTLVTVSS
VL: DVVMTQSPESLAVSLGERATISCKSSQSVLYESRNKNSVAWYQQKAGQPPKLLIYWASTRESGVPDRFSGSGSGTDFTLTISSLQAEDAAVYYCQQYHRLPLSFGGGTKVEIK

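The library (AAYL49) carries one to three amino acid substitutions per variant, with no insertions or deletions. In AlphaSeq, yeast of one mating type display the scFv and yeast of the other type display the target. The frequency of each diploid, read from paired DNA barcodes, reflects how well the two displayed proteins bind. Scores were corrected for input abundance and mapped to Kd with protein pairs of known affinity run in the same pool. Mating was done three times.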

Each variant is given by its three heavy chain CDRs, as the data file delimits them; those of the parent are GFTLNSYGIS, VIYSDGRRTFYGDSVK, GRAAGTFDS.
This list gathers variants with a substitution at L29 (VH, numbered from residue 1).
Values are log10 of the apparent Kd in nM; lower means stronger binding.
Averages over replicates are reported, and they cover detected replicates only.
An entry "nd" has no value in the source: the pair was not observed among the diploids in any replicate. This suggests poor binding but is not conclusive.
Background: pairings of library AAYL49 with three empty control strains gave a value in 15% of cases (median 4.06, 5th percentile 2.83). Values in that range, when seen in few replicates, are hard to tell from nonspecific mating.
In this assay the parent's reference entry averaged 0.65; its copy inside this library read 4.11 (one replicate of three).

With GWTDNSYGIS, VIYSDGRRTFYGPSVK, GRAAGTFDS the result was 4.68 (3 of 3 replicates).
With GFTQNSYGIS, LIYSDGRRTFYGDSVK, GRAWGTFDS the result was 3.86 (2 of 3 replicates).
With GFTCNSYGIS, MEYSDGRRTFYGDSVK, GRAAGTFDS the result was 5.28 (2 of 3 replicates).
With GFTRNSYGIS, VIYGDGRRTFYGDAVK, GRAAGTFDS the result was 4.26 (1 of 3 replicates).
With GFTSNSYGFS, VIYSDGRRTFYGQSVK, GRAAGTFDS the result was 5.13 (1 of 3 replicates).
With GFTVNSYGIS, VIYSDGRRTWYGASVK, GRAAGTFDS the result was 2.64 (3 of 3 replicates).
With KFTKNSYGIS, VIYSDNRRTFYGDSVK, GRAAGTFDS the result was nd (0 of 3 replicates).
With GFTQNSYGIS, VIYSDGRRTFCGDSVW, GRAAGTFDS the result was 3.80 (1 of 3 replicates).
With GFTWNSYRIS, VIYSDGRRTFYGDSVK, GDAAGTFDS the result was nd (0 of 3 replicates).
With GFTINMYGIS, VIYSDGRRTFYGDSVK, GRACGTFDS the result was 1.40 (3 of 3 replicates).
With GFTHNSYGIS, SIYSDGRRTFYGDSVK, PRAAGTFDS the result was 3.96 (1 of 3 replicates).
With GFTYNSYGIS, VIYSDGRRTFYIDSVK, GPAAGTFDS the result was nd (0 of 3 replicates).
With WFTWNSYGIS, VIYSDGRRTFYGDSVK, GRAAGTTDS the result was nd (0 of 3 replicates).
With GFTGNRYGIS, VIYSDGRRDFYGDSVK, GRAAGTFDS the result was 3.07 (1 of 3 replicates).
With GFTVNSYRIS, VIYSDGRRTFYGDSVK, GRAAGTFDS the result was 5.40 (2 of 3 replicates).
With GFTMNSYGIS, VIQSDYRRTFYGDSVK, GRAAGTFDS the result was nd (0 of 3 replicates).
With GFTENSYGIS, VYYSDGRRTFYGDSVK, GRAAGTWDS the result was 4.55 (3 of 3 replicates).
With GFTRNSYGIS, VIYSDGRRTFYGDSVM, CRAAGTFDS the result was nd (0 of 3 replicates).
With GFTQNSYGIS, VIYSDGRRTFYGDSVK, GRAAWTFDS the result was nd (0 of 3 replicates).
With GFWRNSYGIS, VIYSDDRRTFYGDSVK, GRAAGTFDS the result was 3.29 (1 of 3 replicates).
With GFTDNSYGIS, VIYSDGRRTGYGDSVK, WRAAGTFDS the result was nd (0 of 3 replicates).
With LFTANSYGIS, VCYSDGRRTFYGDSVK, GRAAGTFDS the result was nd (0 of 3 replicates).
With GFTPNSYGIE, VICSDGRRTFYGDSVK, GRAAGTFDS the result was nd (0 of 3 replicates).
With GFTWNSYGIS, VIYSDGRRTFYGDSVK, GRAAGTFDG the result was 4.25 (2 of 3 replicates).
With GFTYNSYGIS, LIYSDIRRTFYGDSVK, GRAAGTFDS the result was 3.26 (2 of 3 replicates).
With GFTCWSYGIS, VIYSDGRATFYGDSVK, GRAAGTFDS the result was 5.59 (1 of 3 replicates).
With GFQGNSYGIS, VIYSDGRRTFYGDSVK, GRAAYTFDS the result was nd (0 of 3 replicates).
With GFTNNSYGIS, VIYSDNRWTFYGDSVK, GRAAGTFDS the result was nd (0 of 3 replicates).
With GFTCNSYGIS, VIYSDGRRTFDGDSVK, GRAAGAFDS the result was nd (0 of 3 replicates).
With GFTWNSYGIM, CIYSDGRRTFYGDSVK, GRAAGTFDS the result was nd (0 of 3 replicates).
With GFTENSYGIS, VIYSHGRRTFYPDSVK, GRAAGTFDS the result was nd (0 of 3 replicates).
With GFTGNSYGIS, VIYSDGRRTFYGDSVK, GRRAGTFDP the result was 5.31 (3 of 3 replicates).
With GFTSNAYGIN, VIYSDGRRTFYGDSVK, GRAAGTFDS the result was nd (0 of 3 replicates).
With GFTKNSYGIS, VISSDGNRTFYGDSVK, GRAAGTFDS the result was 5.36 (1 of 3 replicates).
With GFTHNSYGIS, VIYSDGRRTFYGDSVK, GRAAGTFPH the result was 2.73 (1 of 3 replicates).
With GFTTNSYGIS, VIYSDGRRTFHGDSVK, NRAAGTFDS the result was nd (0 of 3 replicates).
With YFTTNSYGIS, VIYSDGRRTTYGDSVK, GRAAGTFDS the result was nd (0 of 3 replicates).
With FFTCNSYGIS, VIYSDGRRTFQGDSVK, GRAAGTFDS the result was 4.42 (2 of 3 replicates).
With GFTYNSYGIS, VIYSDGRRTFYGDSVK, GRAEGPFDS the result was nd (0 of 3 replicates).
With GFTRNSYGIS, VIYSDGRRTFYGDSVK, GRAAGTFDS the result was 3.46 (1 of 3 replicates).
With GFTTNSYGIS, VIYSDGRRTLYGDHVK, GRAAGTFDS the result was nd (0 of 3 replicates).

A selection of 3 entries from above:

CDR-H1	CDR-H2	CDR-H3	mean, log10 nM	replicates with signal
GFWRNSYGIS	VIYSDDRRTFYGDSVK	GRAAGTFDS	3.29	1 of 3
GFTGNSYGIS	VIYSDGRRTFYGDSVK	GRRAGTFDP	5.31	3 of 3
GFTENSYGIS	VYYSDGRRTFYGDSVK	GRAAGTWDS	4.55	3 of 3